We go through 2 molecules from PubChem BioAssay AID2777 (Johns Hopkins Ion Channel Center, 2010).

SMILES strings stand for the structures. The entries are a selection whose mix differs from that of the whole data set. Active and inactive are the calls of the source.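 The calls were made as follows: active = rise or fall in signal beyond 3 SD of buffer-only wells in both replicate plates, either sign; inactive = the rest.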

The test has as its system transient receptor potential cation channel C4 (TRPC4), mouse. As to the kind of experiment: membrane potential change in TRPC4 cells – cell-based, HEK293 TRPC4/mu-opioid, membrane potential dye, selectivity assay for TRPC6 inhibitor project, confirmation (AID 2777).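 Also: integrated kinetic ratio of fluorescence range over baseline.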 As to conditions: membrane potential fluorescence, at 10 µM.

Regarding `CCC(CO)(C(=O)OC1CN2CCC1CC2)c1ccccc1` (configuration not stated), the molecule was called inactive.
On to `O=C(OC1CN2CCC1CC2)C1c2ccccc2Oc2ccccc21` (configuration not stated), for which the activity change, negative = inhibition was active: 7.08%.
